Laboratory results: publication PMC6714936 (Clinical and Applied Thrombosis/Hemostasis, 2019)
pIC50: −log10 of the molar value.

Protein sequences, listed by entry. Tags and fused reporters are not part of them. Residues count along the entry.
UniProt P00743, 41-180: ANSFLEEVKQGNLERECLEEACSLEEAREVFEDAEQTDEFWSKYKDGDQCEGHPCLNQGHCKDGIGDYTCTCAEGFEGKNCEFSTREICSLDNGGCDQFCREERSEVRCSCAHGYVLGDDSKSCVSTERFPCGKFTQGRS
UniProt P00743, 234-492: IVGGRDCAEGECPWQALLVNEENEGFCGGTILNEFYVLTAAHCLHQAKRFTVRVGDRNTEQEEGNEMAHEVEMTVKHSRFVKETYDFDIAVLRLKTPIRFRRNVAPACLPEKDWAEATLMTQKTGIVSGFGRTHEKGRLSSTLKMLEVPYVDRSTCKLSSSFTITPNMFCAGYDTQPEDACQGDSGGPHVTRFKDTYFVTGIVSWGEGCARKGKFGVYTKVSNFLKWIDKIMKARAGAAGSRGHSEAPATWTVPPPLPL

Biological target: factor Xa (Bos taurus, UniProt P00743)
Assay: kinetic amidolytic
Format: biochemical

pIC50: 6.11
Structure (SMILES): CN1CCc2nc(C(=O)N[C@@H]3C[C@@H](C(=O)N(C)C)CC[C@@H]3NC(=O)C(=O)Nc3ccc(Cl)cn3)sc2C1 [Edoxaban]
